How the values were obtained:
[1] = following oral administration; cited from earlier work
[2] = test system: PBMC obtained from a subject having CTCL; test: Induction of apoptosis in CTCL PBMC, TUNEL assay (Example 3); assay type: cell-based, human; conditions: UV-A light

Cc1cc(O)c2c(=O)c3c(O)cc(O)c4c5c(O)cc(O)c6c(=O)c7c(O)cc(C)c8c1c2c(c34)c(c78)c65 [hypericin, 1,3,4,6,8,13-Hexahydroxy-10,11,dimethyl-phenanthro[1,10,9,8,-opqra]perylene-7,14-dione]
oral bioavailability [1]: about 20%
selectivity of apoptosis induction, malignant vs normal leukocytes [2]: significantly greater than its capacity to induce apoptosis of normal leukocytes

— patent US6001882A (priority 1997, dated 1999)
